By UniProt entry, the sequences of proteins in these tests, tags left out.
UniProt P32246, whole entry: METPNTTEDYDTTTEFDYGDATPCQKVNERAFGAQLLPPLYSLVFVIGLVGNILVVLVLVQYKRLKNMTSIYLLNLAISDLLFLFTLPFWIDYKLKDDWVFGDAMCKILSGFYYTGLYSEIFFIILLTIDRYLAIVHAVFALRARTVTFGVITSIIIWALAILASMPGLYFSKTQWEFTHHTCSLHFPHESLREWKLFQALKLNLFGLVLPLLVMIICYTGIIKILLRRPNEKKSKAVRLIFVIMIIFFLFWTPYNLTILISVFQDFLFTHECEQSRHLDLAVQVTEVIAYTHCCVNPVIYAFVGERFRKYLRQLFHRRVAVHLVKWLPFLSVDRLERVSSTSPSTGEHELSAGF

According to US20020151553A1, “Chemokine receptor antagonists and methods of use therefor” (Millennium Pharmaceuticals, Inc., priority 1996, published 2002):

Target: chemokine receptor (RANTES / MIP-1α binding) on THP-1 cell membranes (Homo sapiens, UniProt P32246)
Experiment: Receptor binding assay with 125I-RANTES or 125I-MIP-1α as ligand and THP-1 cell membranes
Conditions: read-out: IC50 (inhibitor concentration required for 50% inhibition of specific binding), 60 min at room temperature
Protocol: Membranes were prepared from THP-1 cells (ATCC #TIB202). Cells were harvested by centrifugation, washed twice with PBS (phosphate-buffered saline), and the cell pellets were frozen at −70 to −85° C. […] This procedure results in cell lysis. The suspension was mixed well to resuspend all of the frozen cell pellet. Nuclei and cell debris were removed by centrifugation of 400× g for 10 minutes at 4° C. The supernatant was transferred to a fresh tube and the membrane fragments were collected by centrifugation at 25,000× g for 30 minutes at 4° C. The supernatant was aspirated and the pellet was resuspended in freezing buffer consisting of 10 mM HEPES pH 7.5, 300 mM sucrose, 1 μg/ml each aprotinin, leupeptin, and chymostatin, and 10 μg/ml PMSF approximately 0.1 ml per each 10^8 cells). All clumps were resolved using a minihomogenizer, and the total protein concentration was determined using a protein assay kit (Bio-Rad, Hercules, Calif., cat #500-0002). The membrane solution was then aliquoted and frozen at −70 to −85° C. until needed. Binding Assays utilized the membranes described above.

Compound | IC50 [nM]
Cc1cccc(C2(O)CCN(CCCC3(C#N)c4ccccc4CSc4ccccc43)CC2)c1 (centres unmarked) | 480
N#CC1(CCCN2CCC(O)(c3ccc(F)cc3)CC2)c2ccccc2CSc2ccccc21 (centres unmarked) | 130
